PubChem BioAssay AID488896 (Broad Institute, 2010)
The entries are a selection whose mix differs from that of the whole data set. Active and inactive are the calls of the source.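 The calls were made as follows: active = mean replicate inhibition of at least 70% and a set share of replicates each scoring 70 or more; inconclusive = meets just one of the two criteria; inactive = fails both criteria.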

Chains of the proteins cited; added tags and fusions are not shown.
UniProt Q61009, whole entry: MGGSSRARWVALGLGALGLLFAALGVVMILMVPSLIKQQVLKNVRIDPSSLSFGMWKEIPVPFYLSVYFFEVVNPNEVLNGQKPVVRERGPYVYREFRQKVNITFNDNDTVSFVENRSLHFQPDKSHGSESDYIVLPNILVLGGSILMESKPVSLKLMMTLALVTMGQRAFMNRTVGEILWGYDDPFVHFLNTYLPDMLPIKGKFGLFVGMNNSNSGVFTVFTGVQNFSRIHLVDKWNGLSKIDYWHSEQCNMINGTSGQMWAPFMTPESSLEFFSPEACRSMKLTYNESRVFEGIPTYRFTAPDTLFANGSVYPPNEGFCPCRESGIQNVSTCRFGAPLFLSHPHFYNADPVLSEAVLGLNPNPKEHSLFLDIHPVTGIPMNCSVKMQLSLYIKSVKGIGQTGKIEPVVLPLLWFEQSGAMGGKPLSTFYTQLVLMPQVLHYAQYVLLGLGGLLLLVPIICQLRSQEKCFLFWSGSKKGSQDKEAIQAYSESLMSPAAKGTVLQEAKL

These compounds were tested against Scavenger receptor class B member 1 (Mus musculus) (UniProt Q61009) (assay: inhibitors of SR-BI mediated HDL lipid uptake, primary screen, ldlA[mSR-BI] cells, fluorescence, single point (AID 488896;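 also: 0% = median of neutral control wells and 100% = median of positive control wells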)). Conditions: ldlA[mSR-BI] CHO cells, DiI-HDL uptake fluorescence, 3 h; at 12.5 µM; hits give high values.
With `CCC(=O)N(c1ccccc1)C1(COC)CCN(CCc2cccs2)CC1` the inhibition was inactive: -9.44%.
In the case of `CCC(=O)N(c1ccccc1)C1(COC)CCN(CCn2nnn(CC)c2=O)CC1`, the inhibition is reported as inactive: -15.2%.
